This assay concerns soluble fed and unfed flea midgut preparations. In kind it is biochemical. The note with it: substrate BAPNA. The source says:
Pellets from the centrifugation step were also collected and resuspended for analysis. Also prepared were whole flea lysates.

This is an account of results in patent US6139840A, “Methods of eliciting an antibody response using flea protease proteins and homologs thereof” (priority 1997, dated 2000).

As for `[Ca+2]` [calcium ions], the “stimulation of proteolytic activity” value is reported as “about 25%”.
